This note sets out measurements from ChEMBL document CHEMBL4024719, “Recent progress in the identification of selective butyrylcholinesterase inhibitors for Alzheimer's disease” (Eur J Med Chem, 2017).

The species entered for this assay is Homo sapiens. As to the kind of experiment: Selectivity ratio of IC50 for AChE (unknown origin) to IC50 for BuChE (unknown origin).

As for `CN(C)C(=O)Oc1cc(OC(=O)N(C)C)cc(C(O)CNC(C)(C)C)c1` (stereo unspecified), the Ratio IC50 was 10000.
